In PubChem BioAssay AID1778 (Sanford-Burnham Center for Chemical Genomics, 2009):
The list shows a part of the results. Results with a measured potency or affinity are listed apart. Active and inactive are the calls of the source. No stated cut-off is given here; in the data, active means inhibition above about 50%; inactive means the rest.

By UniProt entry, the sequences of proteins in these tests, tags left out. Where a name states a change or a piece, a line headed by the entry shows the natural chain unless it says otherwise.
UniProt P41145: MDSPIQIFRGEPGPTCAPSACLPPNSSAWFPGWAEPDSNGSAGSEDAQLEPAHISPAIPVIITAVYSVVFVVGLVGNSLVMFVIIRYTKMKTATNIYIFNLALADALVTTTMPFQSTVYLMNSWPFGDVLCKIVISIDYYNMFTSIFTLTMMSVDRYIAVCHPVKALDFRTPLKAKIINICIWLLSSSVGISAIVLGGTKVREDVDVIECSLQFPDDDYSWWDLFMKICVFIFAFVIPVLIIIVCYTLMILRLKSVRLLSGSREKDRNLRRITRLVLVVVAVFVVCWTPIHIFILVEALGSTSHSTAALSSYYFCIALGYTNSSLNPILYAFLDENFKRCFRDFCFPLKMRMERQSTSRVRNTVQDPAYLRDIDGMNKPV

molecular target: Kappa-type opioid receptor (Homo sapiens) (UniProt P41145); assay: KOR antagonists, beta-arrestin recruitment, cell-based, luminescence, uHTS (AID 1778); conditions: antagonist mode, at 10 µM, active compounds read high

Row | SMILES | inhibition
1 | CCC(=O)Nc1ccc(NC(=O)/C=C/c2ccc(Cl)cc2)cc1 | inactive: -21.1%
2 | NC(=O)Cn1c2[n+](c3ccccc31)CC(O)CS2 (centres undefined) | inactive: -7.3%
3 | CCN(CC)CCn1c(NCc2ccccn2)nc2ccccc21 | inactive: 4.6%
4 | CCN(CC)CCn1c(N)nc2ccccc21 | inactive: 14.3%
5 | Cc1ccc(C(C(=O)NC2CCCCC2)N(Cc2ccco2)C(=O)Cn2cnc3ccccc32)cc1 (centres undefined) | inactive: 12.1%
6 | CC(O)CNc1nc2ccccc2n1CC(=O)NCC(F)(F)F (centres undefined) | inactive: -21.5%
7 | O=C(CSc1nc2ccccc2n1CC(=O)N1CCCC1)N1CCN(C(=O)c2ccco2)CC1 | inactive: -34.4%
8 | C[C@H](NC(=O)N1CCn2c1nc1ccccc12)C(=O)NCCc1ccccc1 | inactive: -4.7%
9 | CSc1ccccc1NC(=O)Cn1c(-c2cscn2)nc2ccccc21 | inactive: 21.9%
10 | O=C(Cn1cnc2ccccc21)N/N=C/c1ccccn1 | inactive: 11.7%
11 | CC(O)c1nc2ccccc2n1CC(=O)Nc1ccc2c(c1)OCCO2 (centres undefined) | inactive: -9.9%
12 | CSCC[C@H](NC(=O)N1CCn2c1nc1ccccc12)C(=O)NCC1CCCO1 (some centres undefined) | inactive: -9.7%
13 | Cc1nnc(NC(=O)Cn2cnc3c2c(=O)n(C)c(=O)n3C)s1 | inactive: 6.3%
14 | Cc1ccc(/C=N/NC(=O)Cn2cnc3c2c(=O)n(C)c(=O)n3C)s1 | inactive: 5.1%
15 | O=C(Cn1c2[n+](c3ccc(C(F)(F)F)cc31)CCCCC2)Nc1ccccc1 | inactive: -9%
16 | Cc1ccc(Cn2nnnc2CN2CCC(n3nnc4ccccc43)CC2)cc1 | inactive: 24.9%
17 | O=c1oc2ccccc2c2c1ncn2CCN1CCOCC1 | inactive: -18.3%
18 | COc1ccc(OC)c(C(=O)CSc2nc3ccccc3n2CC(=O)NC(C)(C)C)c1 | inactive: 10.3%
19 | CCOCN(C(=O)Cn1c(CO)nc2ccccc21)c1c(C)cccc1CC | inactive: 3.8%
20 | Cn1c(=O)c2c(ncn2CC(=O)N2CCOCC2)n(C)c1=O | inactive: 14.7%

Row | SMILES | inhibition
21 | Cn1c(=O)c2c(ncn2CC(=O)Nc2nc(-c3ccc(F)c(F)c3)cs2)n(C)c1=O | inactive: 15.1%
22 | O=P(Nc1nc2ccccc2s1)(c1ccccc1)c1ccccc1 | inactive: 3.4%
23 | N=c1n(CCN2CCCC2)c2ccccc2n1CC(O)c1ccco1 (centres undefined) | inactive: 8.3%
24 | CC(C)N(C(=O)Cn1c(SCC(=O)NC2CC2)nc2ccccc21)C(C)C | inactive: 42.5%
25 | CCN(CC)CCn1c(NS(=O)(=O)c2ccc(Cl)cc2)nc2ccccc21 | inactive: 21.3%
26 | Cn1c(=O)c2c(nc(CN3CCN(c4ccccc4)CC3)n2CCN2CCOCC2)n(C)c1=O | inactive: 3.2%
27 | C[C@H]1OP(=O)(Oc2ccccc2)[C@H](O)[C@H](O)[C@H]1N=[N+]=[N-] (some centres undefined) | inactive: 32.5%
28 | Cc1cc2ncn(C3CC(=O)N(Cc4ccc(N5CCCC5=O)cc4)C3=O)c2cc1C (centres undefined) | inactive: 29.1%
29 | COc1ccccc1OCCSc1nc2ccccc2n1CC(N)=O | inactive: -16.4%
30 | Cn1c(=O)c2c(ncn2CC(=O)N/N=C/c2c[nH]c3ccccc23)n(C)c1=O | inactive: -7.9%
31 | O=[As](O)(c1ccccc1)c1ccc(O)cc1 | inactive: 18.3%
32 | CCOc1ccc(NC(=O)N2CCC(n3c(=O)[nH]c4ccccc43)CC2)cc1 | inactive: -0.1%
33 | O=C(Cn1c(=O)n(CC2CS2)c2ccccc21)N1CCCCC1 (centres undefined) | inactive: -4.3%
34 | Cc1nc2cc(C(F)(F)F)ccc2n1C1CCN(Cc2nnnn2Cc2cccs2)CC1 | inactive: 15.9%
35 | COCC(C)NC(=O)Cn1c(SCc2ccccc2)nc2ccccc21 (centres undefined) | inactive: -27.7%
36 | Cc1nc2ccc(S(=O)(=O)NC(C(=O)N3CCn4c3nc3ccccc34)C(C)C)cc2s1 (centres undefined) | inactive: 23.7%
37 | O=[N+]([O-])c1ncn(CCn2cnc([N+](=O)[O-])n2)n1 | inactive: -1.7%
38 | CC(=O)NC(SC(=S)N(C)C)C(Cl)(Cl)Cl (centres undefined) | inactive: 20.1%
39 | CCOC(=O)C1=C(Cn2cnc3ccccc32)NC(=O)NC1c1cc(C)ccc1C (centres undefined) | inactive: 15%
40 | O=[N+]([O-])c1ccc(O)c(/C=N/Nc2ccc([N+](=O)[O-])cc2[N+](=O)[O-])c1 | inactive: -19.8%

Row | SMILES | inhibition
41 | OC1(c2ccccc2)CCN(Cc2ccccc2)CC1 | inactive: -14.7%
42 | CCn1nccc1C(=O)Nc1nc2ccccc2n1CCN1CCCCC1 | inactive: -0.9%
43 | N=c1n(CCN2CCOCC2)c2ccccc2n1CC(=O)c1ccc(Cl)c(Cl)c1 | inactive: -23.7%
44 | O=C(Cn1c(CC(=O)N2CCCC2)nc2ccccc21)NCc1ccccc1 | inactive: 19.7%
45 | COCCOC(=O)C1=C(C)N=C2SCCC(=O)N2C1/C=C/c1ccccc1 (centres undefined) | inactive: -11.6%
46 | Cc1ccc2c(c1)C1CN(C)CCC1N2C(=O)/C=C/c1ccc2c(c1)OCO2 (centres undefined) | inactive: 11.4%
47 | COc1cc(C(=O)OCCn2c(=O)c3c(ncn3CCN(C)C)n(C)c2=O)cc(OC)c1OC | inactive: 8.7%
48 | O=C(Nc1cccc(F)c1)N1CCC(n2c(=O)[nH]c3ccccc32)CC1 | inactive: 34.6%
49 | O=C(OC1CN2CCC1CC2)c1cccc(Cl)c1 (centres undefined) | inactive: -37.6%
50 | COc1ccc(N2C(=O)CC(N3CCC(n4c(=O)[nH]c5ccccc54)CC3)C2=O)cc1 (centres undefined) | inactive: -52.3%
51 | CCn1c(N)[n+](CC(=O)Nc2ccc(SC(F)F)cc2)c2ccccc21 | inactive: -32.4%
52 | CN(C)C(=O)Cn1c(SCC(=O)NC2CCCCC2)nc2ccccc21 | inactive: 0.9%
53 | CSCC[C@H](NC(=O)N1CCn2c1nc1ccccc12)C(=O)NCc1ccc(F)cc1 | inactive: -35.5%
54 | Nc1ccc([As](=O)(O)c2ccc([N+](=O)[O-])cc2)cc1 | inactive: 0%
55 | C(Cc1nn[nH]n1)Cc1nn[nH]n1 | inactive: -19%
56 | O=C(Nc1ccccc1Cl)N1CCn2c(nc3ccccc32)C1 | inactive: -20%
57 | COc1ccc(CCNC(=O)Cn2cnc3c2c(=O)n(C)c(=O)n3C)cc1OC | inactive: 24.3%
58 | Cn1c(=O)[nH]c(=O)c2c1nc(CN(Cc1ccccc1)Cc1ccccc1)n2CCN1CCOCC1 | inactive: -6.6%
59 | CCC(C(=O)NC1CCCCC1)n1c(SCc2cccc(F)c2)nc2ccncc21 (centres undefined) | inactive: 14.8%
